Laboratory results: PubChem BioAssay AID1347404 (Pan Lab, Icahn School of Medicine at Mount Sinai, 2020)
Only a part is listed here, and it is no random draw. Some tests of the compounds listed are not included; inactive here does not mean inactive elsewhere. Calls of active or inactive are those of the source. No stated cut-off is given here; in the data, active means inhibition above about 25%; inactive means the rest.

The chains behind the UniProt entries cited, without tags or fusion partners.
UniProt P62877, whole entry, looked up: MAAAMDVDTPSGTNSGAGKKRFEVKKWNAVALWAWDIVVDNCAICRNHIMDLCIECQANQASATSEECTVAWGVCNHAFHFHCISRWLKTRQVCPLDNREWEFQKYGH
UniProt Q13616, whole entry, looked up: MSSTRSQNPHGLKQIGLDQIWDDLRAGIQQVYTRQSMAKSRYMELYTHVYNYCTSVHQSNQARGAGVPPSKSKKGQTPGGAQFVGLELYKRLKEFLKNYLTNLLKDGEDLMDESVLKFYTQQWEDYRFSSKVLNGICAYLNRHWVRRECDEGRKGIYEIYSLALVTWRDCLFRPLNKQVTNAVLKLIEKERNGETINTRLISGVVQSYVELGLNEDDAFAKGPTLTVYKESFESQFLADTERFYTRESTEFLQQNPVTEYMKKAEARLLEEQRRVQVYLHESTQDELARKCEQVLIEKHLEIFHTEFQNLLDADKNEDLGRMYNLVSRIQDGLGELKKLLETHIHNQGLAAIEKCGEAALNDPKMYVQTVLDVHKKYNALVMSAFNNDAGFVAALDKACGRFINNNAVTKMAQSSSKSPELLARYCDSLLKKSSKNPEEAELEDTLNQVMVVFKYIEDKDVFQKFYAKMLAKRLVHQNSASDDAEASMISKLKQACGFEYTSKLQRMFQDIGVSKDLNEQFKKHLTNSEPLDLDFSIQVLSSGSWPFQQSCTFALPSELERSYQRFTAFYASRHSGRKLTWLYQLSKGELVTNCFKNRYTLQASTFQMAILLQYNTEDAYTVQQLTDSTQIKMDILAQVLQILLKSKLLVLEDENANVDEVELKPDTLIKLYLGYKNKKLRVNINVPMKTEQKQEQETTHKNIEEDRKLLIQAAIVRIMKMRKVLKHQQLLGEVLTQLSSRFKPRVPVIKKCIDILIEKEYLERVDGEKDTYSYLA

The compounds below were run against E3 ubiquitin-protein ligase RBX1 (Homo sapiens) + Cullin-1 (Homo sapiens) (UniProt P62877+Q13616) (assay: inhibitors of human ROC1-CUL1 ubiquitin ligase activity (AID 1347404)). Conditions: in vitro K48 di-Ub FRET, acceptor:donor ratio, 45 min; at 10 µM; stronger effect = higher value.
With `COc1cccc(C(=O)NCC2(N3CCOCC3)CCCCC2)c1` the inhibition was inactive: -3.96%. In the case of `CN1CCCCC1COC(=O)C(O)(c1ccccc1)c1ccccc1` (stereo unspecified), the inhibition is reported as inactive: 3.34%. In the case of `CC(C)COc1ccc(C(=O)NCC2(N(C)C)CCCCC2)cc1`, the inhibition is reported as inactive: 5.85%. With `Cc1cccc(C(=O)NCC2(N(C)C)CCCCC2)c1` the inhibition was inactive: 3.49%. For `COc1cc(C(=O)NCC2(N(C)C)CCCCC2)cc(OC)c1OC`, the inhibition was inactive: 2.11%. For `CC(C)Oc1ccc(C(=O)NCC2(N(C)C)CCCCC2)cc1`, the inhibition was inactive: -4.95%. For `COc1ccc(C(=O)NCC2(N(C)C)CCCCC2)cc1Cl`, the inhibition was inactive: -3.29%. In the case of `O=C(OCC1CCN(CC2CC2)CC1)C1(O)c2ccccc2Oc2ccccc21`, the inhibition is reported as inactive: 12.5%. With `CN(C)C1(CNC(=O)c2ccccc2[N+](=O)[O-])CCCCC1` the inhibition was inactive: 8.26%. For `CCCCOc1ccccc1C(=O)NCC1(N(C)C)CCCCC1`, the inhibition was inactive: 0.882%. For `CCN1CCCC(OC(=O)C2(O)c3ccccc3C=Cc3ccccc32)C1` (stereo unspecified), the inhibition was inactive: 10.8%. `COc1ccc(CC(c2ccc(C)cc2)N2CCN(C)CC2)cc1OC` (stereo unspecified) was tested, and the inhibition was inactive: -6.14%. In the case of `CCOc1cccc(C(=O)NCC2(N(C)C)CCCCC2)c1`, the inhibition is reported as inactive: -7.7%. In the case of `CN1C2CCC1CC(OC(=O)C1(O)c3ccccc3CCc3ccccc31)C2` (stereo unspecified), the inhibition is reported as inactive: 3.97%. `CN(C)C1(CNC(=O)c2cccc(Cl)c2)CCCCC1` was tested, and the inhibition was inactive: -7.18%. `CN(C)C1(CNC(=O)c2ccccc2F)CCCCC1` was tested, and the inhibition was inactive: -4.94%.
